This note sets out measurements from patent EP1903056A2, “HLA-A1, -A2 -A3, -A24, -B7, and -B44 tumor associated antigen peptides and compositions” (priority 2002, dated 2004).

SMILES strings stand for the structures.

In experiment [1] the test system is B44 supertype (B*1801, B*4001, B*4002, B*4402, B*4403, B*4501). Briefly: B44 supertype cross-binding (degeneracy, number of alleles bound). Also noted: species or system human. The settings on record: number of the six B44 supertype alleles bound.
The next experiment has as its target B*4002 (B61) (Homo sapiens, UniProt P01889, A65T/A93T/A95T/D138N/D201E/D98Y/E176V/E204Q/E69K/K202T/N87E/Q56L/Q94N/R180L/S48T/Y33H/Y91S). Briefly: B44 supertype peptide binding, B*4002. The note with it: Her2/neu-derived B44 peptides; read-out: B* 4002.
The target of another experiment is B*1801 (Homo sapiens, UniProt P01889, A329T/A93T/A95T/C349S/D201E/D54G/D98Y/E176V/E187T/E204Q/E69T/K202T/Q94N/R155S/R180L/S121R/V306I/Y140S/Y195H/Y33H/Y91S). Briefly: B44 supertype peptide binding, B*1801. The note with it: Her2/neu-derived B44 peptides.
Another experiment deals with B*4001(B60) (Homo sapiens, UniProt P01889, A65T/A93T/A95T/D138N/D98Y/E176V/E69K/N87E/Q56L/Q94N/R180L/S121R/S35A/S48T/T167S/V36M/W171L/Y33H/Y91S). Briefly: B44 supertype peptide binding, B*4001. The settings on record: Her2/neu-derived B44 peptides; read-out: B* 4001.
The target in the next experiment is B*4402 (Homo sapiens, UniProt P01889, A223V/A65T/A93T/A95T/D201E/D98Y/E176V/E187L/E204Q/E69K/G107R/H137Y/K202T/L105A/L119I/N104T/N87E/Q56L/Q94N/R106L/R155S/R180D/S101N/S121R/S35A/S48T/T118I/V36M/W191S/Y140D/Y91S). The experiment can be described thus: B44 supertype peptide binding, B*4402. The note with it: Her2/neu-derived B44 peptides; read-out: B* 4402.
Another experiment concerns the target B*4403 (Homo sapiens, UniProt P01889, A223V/A65T/A93T/A95T/D201E/D98Y/E176V/E187L/E204Q/E69K/G107R/H137Y/K202T/L105A/L119I/N104T/N87E/Q56L/Q94N/R106L/R155S/R180L/S101N/S121R/S35A/S48T/T118I/V36M/W191S/Y140D/Y91S). Briefly: B44 supertype peptide binding, B*4403. The settings on record: Her2/neu-derived B44 peptides; read-out: B* 4403.
The target in the next experiment is B*4501 (Homo sapiens, UniProt P01889, A329T/A65T/A93T/A95T/C349S/D138N/D201E/D98Y/E176V/E187L/E204Q/E69K/H137Y/K202T/L119W/N87E/Q56L/Q94N/R155S/R180D/S121R/S35A/S48T/V127L/V306I/V36M/W191S/Y140L/Y33H/Y91S). The experiment can be described thus: B44 supertype peptide binding, B*4501. The settings on record: Her2/neu-derived B44 peptides; read-out: B* 4501.
A further experiment deals with HLA-A*0101 (Homo sapiens, UniProt P04439, A114D/A174V/A182V/D101N/D185E/E176A/E190D/L180R/Q94H/R68K/S129P/T187R/V100A/V91M/W191G). The experiment can be described thus: Class I peptide-binding assay, A*0101. The note with it: binding affinity (IC50) to HLA-A*0101, running text.
In a further experiment the target is HLA-A*2402 (Homo sapiens, UniProt P04439, D101N/D140Y/D185E/E176V/E190D/F33S/G103R/G107R/I119L/I121M/I306V/K335N/L105A/L180Q/L300P/N151K/N90K/Q86E/Q94H/R106L/R138H/R89G/T104I/T345S/V100E/W191G/Y123F). The experiment can be described thus: Class I peptide-binding assay, A*2402. The note with it: binding affinity (IC50) to HLA-A*2402, running text.

`N=C(N)NCCC[C@H](NC(=O)[C@@H]1CCCN1C(=O)[C@H](CCCNC(=N)N)NC(=O)[C@H](CS)NC(=O)[C@H](CCC(=O)O)NC(=O)[C@@H](N)CO)C(=O)N[C@@H](Cc1ccccc1)C(=O)O` [compound 565]: the Degeneracy in experiment [1] was found to be 1.
As to `CC(C)C[C@H](NC(=O)[C@@H]1CCCN1C(=O)[C@H](CO)NC(=O)[C@H](CCCNC(=N)N)NC(=O)[C@@H]1CCCN1C(=O)[C@H](C)NC(=O)[C@H](CCC(=O)O)NC(=O)[C@H](CCC(=O)O)NC(=O)[C@@H](N)CCC(=O)O)C(=O)N[C@@H](C)C(=O)O` [compound 566], the IC50 was above 10 µM on B*4002 (B61), 6.61 µM on B*1801, above 10 µM on B*4001(B60) and 3.13 µM at B*4402. In [1], this compound came in with a Degeneracy of 1.
With `CC(C)C[C@H](NC(=O)[C@@H]1CCCN1C(=O)[C@H](CO)NC(=O)[C@H](CCCNC(=N)N)NC(=O)[C@@H]1CCCN1C(=O)[C@H](C)NC(=O)[C@H](CCC(=O)O)NC(=O)[C@@H](N)CCC(=O)O)C(=O)O` [compound 567], the IC50 on B*4001(B60) was found to be 3.49 µM; on B*4402, 3.02 µM. The Degeneracy in experiment [1] stood at 1.
In [1], `CC(C)C[C@H](NC(=O)[C@H](CC(=O)O)NC(=O)CNC(=O)[C@H](CC(=O)O)NC(=O)[C@H](Cc1ccccc1)NC(=O)[C@@H](NC(=O)[C@H](CC(=O)O)NC(=O)[C@H](CO)NC(=O)CNC(=O)[C@H](C)NC(=O)CNC(=O)[C@H](CCC(=O)O)NC(=O)[C@@H](N)CO)C(C)C)C(=O)O` [compound 568] displayed a Degeneracy of 1.
In the case of `CC(C)[C@H](NC(=O)[C@H](CC(=O)O)NC(=O)[C@@H]1CCCN1C(=O)[C@H](CCC(N)=O)NC(=O)[C@H](CC(N)=O)NC(=O)[C@@H](NC(=O)[C@H](Cc1ccc(O)cc1)NC(=O)[C@H](CCC(=O)O)NC(=O)[C@@H]1CCCN1)C(C)C)C(=O)O` [compound 569], the IC50 was 1.58 µM on B*4002 (B61), 0.831 µM on B*1801 and 3.44 µM at B*4001(B60). Also, the Degeneracy in [1] is on record as 1.
The compound `CC(C)C[C@H](NC(=O)[C@H](Cc1ccc(O)cc1)NC(=O)[C@H](CCC(=O)O)NC(=O)[C@@H]1CCCN1C(=O)[C@H](CC(N)=O)NC(=O)[C@H](CCC(=O)O)NC(=O)[C@@H](N)C(C)C)C(=O)N[C@H](C(=O)N1CCC[C@H]1C(=O)N[C@@H](CCC(N)=O)C(=O)NCC(=O)O)[C@@H](C)O` [compound 570] returned a Degeneracy in [1] of 1.
On to `CC(C)C[C@H](NC(=O)[C@H](Cc1ccc(O)cc1)NC(=O)[C@H](CCC(=O)O)NC(=O)[C@@H]1CCCN1)C(=O)N[C@H](C(=O)N1CCC[C@H]1C(=O)N[C@@H](CCC(N)=O)C(=O)NCC(=O)NCC(=O)O)[C@@H](C)O` [compound 571], for which the IC50 at B*4403 stood at 0.284 µM; at B*4002 (B61), 13.9 µM; at B*1801, 1.46 µM; on B*4402 it was 6.53 µM. This compound also returned a Degeneracy in [1] of 1.
Consider `C[C@H](NC(=O)CNC(=O)[C@H](CCCNC(=N)N)NC(=O)[C@H](CCC(=O)O)NC(=O)[C@@H]1CCCN1)C(=O)N1CCC[C@H]1C(=O)N1CCC[C@H]1C(=O)N[C@@H](CO)C(=O)N[C@H](C(=O)N[C@@H](Cc1ccccc1)C(=O)O)[C@@H](C)O` [compound 572], for which the IC50 at B*4002 (B61) was 3.44 µM; on B*4001(B60), 14.9 µM; on B*4402 it was 6.87 µM. Also, the Degeneracy in experiment [1] is recorded as 1.
Compound `CSCC[C@H](NC(=O)[C@H](CC(=O)O)NC(=O)[C@H](CC(C)C)NC(=O)[C@H](Cc1c[nH]cn1)NC(=O)[C@@H](NC(=O)[C@H](CCC(=O)O)NC(=O)[C@@H]1CCCN1)[C@@H](C)O)C(=O)O` [compound 573] showed a Degeneracy in experiment [1] of 0.
For the compound `CC(C)C[C@H](NC(=O)[C@H](CO)NC(=O)[C@H](CCC(N)=O)NC(=O)[C@H](CS)NC(=O)[C@H](CC(=O)O)NC(=O)[C@H](CCC(=O)O)NC(=O)[C@@H](N)CO)C(=O)N[C@H](C(=O)N[C@@H](CCCNC(=N)N)C(=O)N[C@H](C(=O)O)[C@@H](C)O)[C@@H](C)O` [compound 574], the IC50 on B*4002 (B61) was determined as 11.5 µM; on B*1801, 7.26 µM; at B*4501 it was 5.18 µM; on B*4001(B60), 8.55 µM; on B*4402, 0.518 µM. The same compound showed a Degeneracy in experiment [1] of 0.
In [1], `CC(C)C[C@H](NC(=O)[C@@H](NC(=O)[C@H](CCC(=O)O)NC(=O)[C@H](Cc1ccccc1)NC(=O)[C@@H](NC(=O)[C@H](CCC(N)=O)NC(=O)[C@H](CC(C)C)NC(=O)[C@H](CCC(N)=O)NC(=O)[C@H](CCC(=O)O)NC(=O)[C@@H]1CCCN1)C(C)C)[C@@H](C)O)C(=O)O` [compound 579] had a Degeneracy of 0.
With `CC[C@H](C)[C@H](NC(=O)[C@H](CCC(=O)O)NC(=O)[C@H](CCC(=O)O)NC(=O)[C@@H](N)CC(C)C)C(=O)N[C@H](C(=O)NCC(=O)N[C@@H](Cc1ccc(O)cc1)C(=O)N[C@@H](CC(C)C)C(=O)N[C@@H](Cc1ccc(O)cc1)C(=O)O)[C@@H](C)O` [compound 583], the IC50 on B*4403 was 5.34 µM; at B*4002 (B61), above 10 µM; on B*1801 it was 1.05 µM; on B*4501 it was above 10 µM; on B*4001(B60), 13.5 µM. Also, in experiment [1], the Degeneracy was found to be 0.
In experiment [1], `CC(C)[C@H](NC(=O)[C@H](CS)NC(=O)[C@H](CCC(N)=O)NC(=O)[C@H](CC(=O)O)NC(=O)[C@H](C)NC(=O)[C@H](CCC(=O)O)NC(=O)[C@@H]1CCCN1)C(=O)N[C@@H](C)C(=O)N[C@@H](CS)C(=O)N[C@@H](C)C(=O)N[C@@H](Cc1c[nH]cn1)C(=O)N[C@@H](Cc1ccc(O)cc1)C(=O)O` [compound 591] returned a Degeneracy of 0.
As for `CC(C)C[C@H](NC(=O)[C@H](CCCNC(=N)N)NC(=O)[C@@H](NC(=O)[C@H](CC(=O)O)NC(=O)[C@H](CCC(=O)O)NC(=O)[C@@H](N)CC(C)C)C(C)C)C(=O)N[C@H](C(=O)O)C(C)C` [compound 592], the IC50 was 2.66 µM on B*4403; above 10 µM at B*4002 (B61); above 10 µM at B*4501; 17.4 µM at B*4001(B60); above 10 µM on B*4402. The compound also gave a Degeneracy in [1] of 0.
Consider `C[C@H](NC(=O)[C@H](Cc1c[nH]cn1)NC(=O)[C@H](Cc1ccc(O)cc1)NC(=O)[C@H](CCC(=O)O)NC(=O)[C@@H](NC(=O)[C@H](CCC(=O)O)NC(=O)[C@@H](N)CC(=O)O)[C@@H](C)O)C(=O)O` [compound 593], for which the IC50 at B*4403 was 10.5 µM; at B*4002 (B61), 18.3 µM; on B*4501, above 10 µM; at B*4001(B60), above 10 µM; on B*4402, above 10 µM. This compound returned a Degeneracy in experiment [1] of 0.
As for `CSCC[C@H](NC(=O)[C@H](CC(=O)O)NC(=O)[C@H](CC(=O)O)NC(=O)[C@H](CC(=O)O)NC(=O)[C@H](CCC(=O)O)NC(=O)[C@@H](N)CC(C)C)C(=O)NCC(=O)N[C@@H](CC(=O)O)C(=O)N[C@@H](CC(C)C)C(=O)N[C@H](C(=O)O)C(C)C` [compound 594], the IC50 worked out at 3.64 µM at B*4403; 3.6 µM on B*4002 (B61); 9.18 µM at B*1801; 2.96 µM on B*4001(B60); 6.75 µM at B*4402. Further, in experiment [1], the Degeneracy is 0.
As to `CSCC[C@H](NC(=O)[C@H](CCCCN)NC(=O)[C@H](CC(N)=O)NC(=O)[C@H](CC(C)C)NC(=O)[C@H](C)NC(=O)[C@@H]1CCCN1C(=O)[C@H](CO)NC(=O)[C@H](Cc1ccc(O)cc1)NC(=O)[C@@H](N)[C@@H](C)O)C(=O)N[C@@H](Cc1ccccc1)C(=O)O` [p53.125], the IC50 on HLA-A*0101 and on HLA-A*2402 was at most 0.1 µM in each case.
